T1: recombinant cynomolgus monkey PD-1 expressed with a C-terminal myc-myc-hexahistidine tag (cynomolgus monkey)
T1 construct: also called MfPD-1-MMH; MIPD-1-MMH
T1 chain: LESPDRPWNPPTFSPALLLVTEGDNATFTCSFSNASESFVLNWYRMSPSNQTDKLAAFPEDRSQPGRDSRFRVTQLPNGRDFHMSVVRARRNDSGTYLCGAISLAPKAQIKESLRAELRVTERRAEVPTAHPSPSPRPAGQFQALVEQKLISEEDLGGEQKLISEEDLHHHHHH


Experiments:
[1] = target: T2, recombinant human PD-1 expressed with a C-terminal myc-myc-hexahistidine tag (hPD-1-MMH) (human); assay: SPR (Biacore), mAb captured, hPD-1-MMH injected, 25 C
T2 construct: Monomeric PD-1 reagent; also called human PD-1-MMH

[2] = target: T1, recombinant cynomolgus monkey PD-1 …; assay: SPR Biacore, mAb captured, 25 C

Row | Binder | t½ [1] | t½ [2]
1 | H4H9019P (antibody, human IgG4, V domains shown, Fully human antibody with a human IgG4 Fc (H4H prefix)) VH: EVQLVESGGGVVRPGGSLRLSCAASGFTFDDYGMSWVRQVPGKGLEWVSGISWNDGKTVYAESVKGRFIISRDNAKNSLYLEMNSLRAEDTALYYCARDWQYLIERYFDYWGQGTLVTVSS VL: not shown | 14 min | –
2 | H4H9019P (antibody, human IgG4, V domains shown, fully human, human IgG4 Fc (H4H prefix); also called H4xH9019P; H4M9019P) VH: EVQLVESGGGVVRPGGSLRLSCAASGFTFDDYGMSWVRQVPGKGLEWVSGISWNDGKTVYAESVKGRFIISRDNAKNSLYLEMNSLRAEDTALYYCARDWQYLIERYFDYWGQGTLVTVSS VL: not shown | – | 14 min
